Measured values taken from ChEMBL document CHEMBL5725680, “Aryl-cyanoguanidine compounds” (2018).

Assay: Scintillation Proximity Assay (SPA) for Detection of SMYD2 Enzymatic Inhibition: SMYD2 inhibitory activities of the compounds described in the present invention were quantified using a scintillation proximity assay (SPA) which measures methylation by the enzyme of the synthetic, biotinylated peptide Btn-Ahx […] (SEQ ID NO: 3) Amid x TFA (Biosyntan) derived from p53 and referred to from here on as p53 Peptide. […] To this end, 100-fold concentrated compound solutions (in DMSO) were previously prepared by serial dilution (1:3.4) of 2 mM stocks in a clear low volume 384-well source microtiter plate (Greiner Bio-One), from which 50 nl of compound solutions were transferred into a white low volume test microtiter plate from the same supplier. Subsequently, 2.5 μl SMYD2 in aqueous assay buffer [50 mM Tris/HCl pH 9.0 (AppliChem), 1 mM dithiothreitol (DTT, Sigma), 0.01% (w/v) bovine serum albumine (BSA, Sigma), 0.0022% (v/v) Pluronic (Sigma)] were added to the compounds in the test plate to a final enzyme concentration of typically 3 nM (this parameter was adjusted depending on the activity of the enzyme lot in order to be within the linear dynamic range of the assay). […]

Which IC50 does the source give for `CCN(C(=O)CO)C1CN(/C(=N\C#N)Nc2cc(OC(F)F)ccc2OC)N=C1c1ccc(Cl)c(Cl)c1` (single isomer, unassigned) here?
Its IC50 is greater than 20 µM.
